Rows were chosen to be rich in hits. Some 16% of all compounds tested hit in one or more screens of this group.
uPA generation: cell surface uPA generation inhibition. cell surface uPA generation assay, qHTS. Potency, µM (titrated, usually from 38.3 µM), for the others: at the top dose activity change, negative = inhibition, actives largely listed as inhibitors. 0.31% of 330,000 active. AID 540303; active = well fitted inhibition curve with a large enough effect; inconclusive = small, poorly fitted or top-dose-only effect; inactive = no such curve, though single readings can be large or run the other way; tested in mouse RAW 264.7 cells; note: potency is the fitted concentration of half-maximal effect; % is set by controls: 0 for no effect and ±100 for the full control effect; nearly all actives have a fitted effect of over 55% in size
TDP1 cell CPT: DT40-hTDP1 cell growth loss with CPT; chicken DT40 Tdp1-/-;hTDP1 cells + 20 nM CPT, ATP luminescence, 48 h; Potency, µM (highest dose often 46.2 µM), without a hit: at the top dose activity change, negative = growth inhibition, usual class: inhibitors; 12% of 420,000 active; note: potency is the fitted concentration of half-maximal effect; % is set by controls: 0 for no effect and ±100 for the full control effect; nearly all actives have a fitted effect of over 55% in size
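Chicken DT40 Tdp1-/- cells complemented with human TDP1, 400 cells/well, exposed to compounds plus 20 nM camptothecin for at least 48 h at 37 C; viability read as ATP content by CellTiter-Glo luminescence.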
TDP1 inh: blocks human tyrosyl-DNA phosphodiesterase 1; recombinant TDP1, AlphaScreen DNA substrate cleavage; Potency, µM (titrated, usually from 130 µM), inactives show at the top dose activity change, negative = inhibition, hits mostly inhibitors; AID 485290; 0.28% of 350,000 active; Q9NUW8; note: potency is the fitted concentration of half-maximal effect; % is set by controls: 0 for no effect and ±100 for the full control effect; nearly all actives have a fitted effect of over 40% in size
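Enzyme-compound mixtures sat 15 min at room temperature, followed by a 5 min reaction with 15 nM final substrate and 10 min with AlphaScreen beads. Recombinant human Tdp1 was used at 1 nM final.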
TDP1 cell noCPT: qHTS for Inhibitors of human tyrosyl-DNA phosphodiesterase 1 (TDP1): qHTS in cells in absence of CPT. 15% of 420,000 active. DT40 Tdp1-/- hTDP1 cells, no CPT, ATP luminescence, 48 h. AID 686978, 2013. Potency, µM (series often up to 46.2 µM), without a hit: at the highest dose activity change, negative = growth inhibition, actives largely listed as inhibitors; note: potency is the fitted concentration of half-maximal effect; % is set by controls: 0 for no effect and ±100 for the full control effect; nearly all actives have a fitted effect of over 55% in size
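Growth kinetics read by CellTiter-Glo luminescence after ≥48 hr at 37 °C. Cells: DT40 Tdp1-/- stably carrying human TDP1, 400 per well, compound exposure in the absence of CPT (DMSO vehicle).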
miR-21 reporter: raises the signal of a miR-21 reporter. Potency, µM (highest dose often 38.3 µM), without a hit: top-dose reporter change, positive = more light. 340,000 tested, under 10 active. HeLa miR-21 FLuc reporter, luciferase, 48 h; active = well fitted rising curve with a large enough effect; inconclusive = small, poorly fitted or top-dose-only effect; inactive = no such curve, though single readings can be large or run the other way;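 further: % of control where 0% means no effect; miR-21 action dims this reporter so a rising signal means less miR-21 action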
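HeLa miR-21-FLuc reporter line, endogenous miR-21; 2000 cells/well in DMEM/10% FBS; compound titration up to ~40uM final, 48 h, 37 degree Celsius; luciferase detection reagent, 15 min lysis, CCD luminescence.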
* = called active by the depositor; ? = inconclusive; · = no result given; ! = a repeat was not active; [ ] = remark or other dose. Unless noted, calls come from the whole dose curve; as a rule, active = well fitted curve in the direction sought with a large enough effect; inconclusive = small, poorly fitted or top-dose-only effect, or another doubt; inactive = no such curve, though single readings can be large; an effect the other way counts as inactive or inconclusive.

item | Compound | uPA generation | TDP1 cell CPT | TDP1 inh
1 | C=Cc1ccc(C(=O)NC2CCCN(Cc3ccccc3F)C2)cc1 (stereo not given) | 5% | ? | 2%
2 | C1CCCCCC(=NNc2nn[nH]n2)CCCCC1 | 0% | 7% | ·
3 | Cc1cc(=O)[nH]c(COc2ccccc2)n1 | 4% | -9% | 6%
4 | COc1ccc(C(=O)/C=C/c2cn(CC(O)CN(CC(C)C)CC(C)C)c3ccccc23)cc1 (stereo not given) | · | 15µM* | -3%
5 | CCCN(CCC)CC(O)Cn1cc(/C=C/C(=O)c2ccc(OC)cc2)c2ccccc21 (stereo not given) | · | ? | 0%
6 | C/C(=N\NC(=O)c1nnn(-c2nonc2N)c1CSc1ccc(C)cc1)c1cccs1 | · | -18% | ·
7 | Cc1ccc(N(CC(=O)NCC2CCCO2)S(=O)(=O)c2ccccc2)c(C)c1 (stereo not given) | -7% | -12% | 7%[0.0935 µM]
8 | CC[C@@H](C)[C@@H](C(=O)N1CCN(C(=O)OC(C)(C)C)CC1)n1cc(CCCCNC(=O)OC(C)(C)C)nn1 | -4% | 13µM* | 0%
9 | CC[C@H](C)C(C(=O)N1CCN(C(=O)OC(C)(C)C)CC1)n1cc(C(CC(C)C)NC(=O)OC(C)(C)C)nn1 (stereo not given in full) | 6% | 23µM* | 4%
10 | CC(C)CC(NC(=O)OC(C)(C)C)c1cn([C@@H](CCC(=O)OC(C)(C)C)C(=O)N2CCN(C(=O)OC(C)(C)C)CC2)nn1 (stereo not given in full) | 8% | 16µM* | 4%

item | TDP1 cell noCPT | miR-21 reporter
1 | ? | -3%
2 | -3% | 0%
3 | -12% | -4%
4 | 16µM* | 1%
5 | 5.2µM* | 0%
6 | ? | ·
7 | -9% | -5%
8 | 13µM* | 23%
9 | ? | 2%
10 | 16µM* | -2%

Brought forward from above: 2 compounds, followed by the next part.
item | Compound | uPA generation | TDP1 cell CPT | TDP1 inh
9 | CC[C@H](C)C(C(=O)N1CCN(C(=O)OC(C)(C)C)CC1)n1cc(C(CC(C)C)NC(=O)OC(C)(C)C)nn1 (stereo not given in full) | 6% | 23µM* | 4%
10 | CC(C)CC(NC(=O)OC(C)(C)C)c1cn([C@@H](CCC(=O)OC(C)(C)C)C(=O)N2CCN(C(=O)OC(C)(C)C)CC2)nn1 (stereo not given in full) | 8% | 16µM* | 4%
11 | CC(C)(C)OC(=O)NCCCCc1cn(CC(=O)N2CCN(C(=O)OC(C)(C)C)CC2)nn1 | -6% | ? | 6%
12 | Cc1ccc(-c2nc(-c3cccs3)c(-c3cccs3)[nH]2)cc1 | · | 15µM* | -2%
13 | O=[N+]([O-])c1cccc(-c2noc(-c3cccs3)n2)c1 | 13% | 16% | 0%
14 | Fc1ccc(-c2nc(-c3cccs3)c(-c3cccs3)[nH]2)cc1 | · | ? | 0%
15 | O=[N+]([O-])c1ccc(-c2nc(-c3cccs3)c(-c3cccs3)[nH]2)cc1 | 0% | 12µM* | 11%
16 | O=[N+]([O-])c1cccc(-c2nc(-c3cccs3)c(-c3cccs3)[nH]2)c1 | 1% | 21µM* | 10%
17 | Cc1ccc(NC(=O)C(NS(=O)(=O)c2cccc3nsnc23)C(C)C)nc1 (stereo not given) | 11% | 4% | 1%
18 | Cc1ccc(CN2CC(C(=O)NC(c3nc4ccccc4[nH]3)C(C)C)CC2=O)cc1 (stereo not given) | 16% | -12% | 1%
19 | COc1cccc2c1OC[C@@H](CO)[C@H]2N(C)C(=O)Nc1ccc(Cl)cc1Cl | -8% | 13µM* | 2%
20 | CCS(=O)(=O)N1CCc2cc(C(=O)N3CCN(c4ccccc4)CC3)ccc21 | · | 16µM* | 6%

item | TDP1 cell noCPT | miR-21 reporter
9 | ? | 2%
10 | 16µM* | -2%
11 | ? | 0%
12 | 12µM* | 22%
13 | -4% | -21%
14 | ? | 23%
15 | 12µM* | 27%
16 | 21µM* | 21%
17 | -11% | 0%
18 | -18% | ·
19 | 10µM* | 15%
20 | 15µM* | 5%

(next part)
item | Compound | uPA generation | TDP1 cell CPT | TDP1 inh
21 | CC(=O)N1CCc2cc(C(=O)CN3CCN(c4cccc(Cl)c4)CC3)ccc21 | -13% | 15µM* | 4%
22 | Cc1ccc(Cl)cc1N1CCN(C(=O)c2ccc3c(c2)CCN3S(C)(=O)=O)CC1 | · | · | 5%
23 | O=C(c1ccc2c(c1)CCN2S(=O)(=O)c1ccccc1)N1CCN(c2ccc(F)cc2)CC1 | 12% | 23µM* | 6%
24 | CS(=O)(=O)N1CCc2cc(C(=O)N3CCN(c4cccc(Cl)c4)CC3)ccc21 | -5% | 16µM* | 3%
25 | Cc1n[nH]c(=O)c2c(NC(=O)CSc3nnnn3-c3ccc(O)cc3)oc(C)c12 | -1% | 2% | 1%
26 | CCCOc1ccc(-c2c(C(=O)N/N=C/c3ccsc3)nnn2-c2nonc2N)cc1 | 1% | -2% | 0%
27 | COc1ccc(CCCC(=O)N/N=C\c2cccs2)cc1 | 4% | 2% | 2%
28 | O=C(OCCN1C(=O)c2ccccc2C1=O)C1CC(O)CN1S(=O)(=O)c1ccc(Cl)cc1 (stereo not given) | 1% | -2% | 0%
29 | COc1ccccc1CC(=O)N1CCN(c2ccc(F)cc2)CC1 | 1% | 1% | ·
30 | CCN(c1ccccc1)S(=O)(=O)c1ccc(C(=O)N2CCCC(C(F)(F)F)C2)cc1 (stereo not given) | 6% | 8.2µM* | 0%[0.505 µM]

item | TDP1 cell noCPT | miR-21 reporter
21 | 21µM* | -9%
22 | · | 25%
23 | 15µM* | 10%
24 | 18µM*! | 5%
25 | -4% | ·
26 | -3% | 0%
27 | -23% | -6%
28 | 5% | ·
29 | ? | ·
30 | 23µM* | ·

Given as labelled records: 2 of the compounds above
23) O=C(c1ccc2c(c1)CCN2S(=O)(=O)c1ccccc1)N1CCN(c2ccc(F)cc2)CC1
  uPA generation: 12%	TDP1 cell CPT: 23µM*	TDP1 inh: 6%	TDP1 cell noCPT: 15µM*	miR-21 reporter: 10%

24) CS(=O)(=O)N1CCc2cc(C(=O)N3CCN(c4cccc(Cl)c4)CC3)ccc21
  uPA generation: -5%	TDP1 cell CPT: 16µM*	TDP1 inh: 3%	TDP1 cell noCPT: 18µM*!	miR-21 reporter: 5%

Continued:
item | Compound | uPA generation | TDP1 cell CPT | TDP1 inh
31 | O=C(c1cccc(S(=O)(=O)N2CCc3ccccc3C2)c1)N1CCN(c2ccccc2)CC1 | -2% | ? | 0%
32 | O=C(c1ccc(S(=O)(=O)Nc2ccccc2)cc1)N1CCCC(C(F)(F)F)C1 (stereo not given) | 13% | ? | 4%
33 | O=C(c1cccc(S(=O)(=O)N2CCc3ccccc32)c1)N1CCCC(C(F)(F)F)C1 (stereo not given) | 4% | 10µM* | 0%[0.505 µM]
34 | COc1ccccc1N1CCN(C(=O)c2ccc3c(c2)CCN3S(=O)(=O)c2ccccc2)CC1 | -10% | 8.2µM* | 5%
35 | O=C(c1cccc(S(=O)(=O)N2CCc3ccccc32)c1)N1CCN(c2ccccc2)CC1 | 4% | ? | 5%
36 | O=[N+]([O-])c1cccc(Oc2cnccn2)c1 | -1% | -23% | 16%
37 | CC(C)(C)NC(=O)/C(=C\c1cccnc1)NC(=O)c1ccco1 | 8% | 3% | 1%
38 | CC(C)CC(=O)NNC(=O)c1ccc(Cl)cc1 | -2% | -31% | 1%
39 | CCCCC(CCc1ccccn1)C(=O)c1ccccc1 (stereo not given) | -2% | 23µM* | ·
40 | CCC(CCc1ccccn1)C(=O)c1ccccc1 (stereo not given) | 1% | -22% | ·
41 | CN(C)CC(CCCCC(CN(C)C)C(=O)c1ccccc1)C(=O)c1ccccc1 (stereo not given) | 10µM* | 5.8µM* | 2%
42 | Cc1ccc(NS(=O)(=O)c2cccc3nsnc23)cc1[N+](=O)[O-] | -7% | 4% | ·
43 | NC(=O)c1nn(CC(=O)Nc2cccc(S(=O)(=O)N3CCCC3)c2)c(=O)c2ccccc12 | -8% | -26% | 1%

item | TDP1 cell noCPT | miR-21 reporter
31 | ? | 3%
32 | ? | 10%
33 | 21µM* | ·
34 | 2.9µM* | ?
35 | 29µM* | ·
36 | -11% | -2%
37 | 5% | 6%
38 | -5% | -10%
39 | ? | ·
40 | -22% | ·
41 | 5.8µM* | 26%
42 | 24% | -9%
43 | -1% | ·

Source: PubChem (National Center for Advancing Translational Sciences (NCATS))
